Test results published in patent publication US8628771B2, “CA IX-specific inhibitors” (Institute of Virology Slovak Academy of Sciences, priority 2002, dated 2014).

Test system: human red cells
Conditions: for [sulfonamide] in red blood cells, EI: enzymatic method

[sulfonamide] in red blood cells, ES: 0.3 µM and 0.6 µM
[sulfonamide] in red blood cells, HPLC: 0.4 µM
amount detected within the blood red cells (membrane penetration) (same conditions, incubation up to one hour, tested form: perchlorate): detected only in very small amounts
[sulfonamide] in red blood cells, EI (t = 30 min, 2 mM sulfonamide, pH 7.4, tested form: perchlorate): 0.5 µM
[sulfonamide] in red blood cells, HPLC (t = 60 min, 2 mM sulfonamide, pH 7.4, HPLC method, tested form: perchlorate): 0.3 µM
[sulfonamide] in red blood cells, EI (t = 60 min, 2 mM sulfonamide, pH 7.4, tested form: perchlorate): 0.5 µM
Compound: Cc1c2cc(c(C)[n+]1-c1ccc(S(=O)(=O)Nc3nnc(S(N)(=O)=O)s3)cc1)CCCCCCCCC2

Several values for one entry are separate records, joined by “and”; a condition that tells them apart may be missing. Identical values can stand only once. Like-named read-outs stand apart in the source and are kept apart here.
